Data set [1] concerns IL-2 dependent mouse cells “CTLL-2”. Nature of the data set: IL-2 biological activity using IL-2 dependent CTLL-2 cells. Format: cell-based. As to conditions: relative to rhIL-2. As to the method: The IL-2 biological activity of (Gal)3-rhIL-2, (GalNAc)3-rhIL-2, PEG12, (Gal)3-rX2-IL-2 and rhIL-2 was measured by the method of Gills et al. (J. Immunol., 120, 2027 (1978)) using IL-2 dependent mouse cells “CTLL-2” (ATCC T1B 214) obtained from ATCC.

Data set [2] concerns mouse-separated hepatocytes. Description: Uptake of 125I-labeled modified product into hepatocytes. Format: cell-based. As to conditions: 24 nM, 37° C., 0-4 hours. As to the method: The test for binding of a modified product into hepatocytes was conducted, like the binding test, using cells obtained by incubating hepatocytes (total of 6.0×10^7 cells, bioavailability 92%) formed by refluxing 3 mice (C57BL/6, 9W, male) with a collagenase and purifying them through centrifugation at a low rate, on a collagenase-coated plate in amounts of 6×10^5 cells/well in a 10% FBS-containing D-MEM medium (supplied by Gibco, containing 100 U/ml of penicillin, 100 μg/ml of streptomycin and 50 μg/ml of gentamicin) overnight at 37° C. in 5% CO2.
The test for uptake into hepatocytes was also conducted according to the method of Chang et al (T. Chang et al., BBA 942. 57-64 (1988)). The cells which were approximately in the almost confluent state were washed once with a D-MEM medium (pH 7.4) containing 0.1% BSA and 10 mM Hepes, and the buffer was added thereto. The mixture was incubated in 5% CO2 at 37° C. for 30 minutes. One milliliter of 24 nM of (Gal)3-rhIL-2 (1.14×10^7 cpm/μg (calculated as IL-2)), (GalNAc)3-rhIL-2 (1.09×10^7 cpm/μg (calculated as IL-2)) or ASOR (3.16×10^6 cpm/μg) (dissolved in the buffer) which had been ^125I-labeled by the chloramine T method was added thereto, and the incubation was conducted at 37° C. for fixed periods of time (0 minute, 30 minutes, 1 hour, 2 hours and 4 hours). […] The radioactivity by the non-specific binding was subtracted from the radioactivity of 0.8 ml of 1 ml of the 0.1 N NaOH solution containing 0.5% SDS in each well, and the radioactivity of the total amount thereof was calculated from the above-obtained value. The thus-calculated value was defined as an amount of an uptake fraction. Meanwhile, a value obtained by subtracting the radioactivity by the non-specific degradation from the radioactivity of the total trichloroacetic acid-soluble fraction in the medium was defined as an amount of a degradation fraction. […] The total protein amount of the cells was calculated by the Lorry method with respect to 0.1 ml of the solution.

Data set [3] relates to fibrosarcoma (S908, D2. vp2). Description: Antitumor effect in mice with fibrosarcoma implanted in the liver. Format: in vivo, mice (B10D2). As to conditions: i.v. five times, 0.5 μg/shot from Day 7; Day 28. The protocol: Mice (B10D2, 6W, female) in which a fibrosarcoma (S908, D2. vp2) was implanted in the liver (7.5×10^4 cells/mouse) were used in this test. On Day 7 after the implantation, (Gal)3-rhIL-2 and rhIL-2 were intravenously administered five times in total (0.5 μg/shot) (n=4). On Day 28, the anatomical examination was conducted.

For data set [4] the following is noted: mouse, in vivo.
In data set [5] the target is T1, asialoglycoprotein receptor (Mus musculus, UniProt P24721+P34927).
T1 sequence (P34927 1-284): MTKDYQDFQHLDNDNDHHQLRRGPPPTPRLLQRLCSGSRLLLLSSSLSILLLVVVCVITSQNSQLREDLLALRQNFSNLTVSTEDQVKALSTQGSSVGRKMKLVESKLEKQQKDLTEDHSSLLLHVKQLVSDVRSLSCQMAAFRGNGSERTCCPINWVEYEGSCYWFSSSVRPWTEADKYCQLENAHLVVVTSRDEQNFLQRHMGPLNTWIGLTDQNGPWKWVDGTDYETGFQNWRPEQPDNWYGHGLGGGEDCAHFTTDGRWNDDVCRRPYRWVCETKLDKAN
T1 sequence (P24721 1-301): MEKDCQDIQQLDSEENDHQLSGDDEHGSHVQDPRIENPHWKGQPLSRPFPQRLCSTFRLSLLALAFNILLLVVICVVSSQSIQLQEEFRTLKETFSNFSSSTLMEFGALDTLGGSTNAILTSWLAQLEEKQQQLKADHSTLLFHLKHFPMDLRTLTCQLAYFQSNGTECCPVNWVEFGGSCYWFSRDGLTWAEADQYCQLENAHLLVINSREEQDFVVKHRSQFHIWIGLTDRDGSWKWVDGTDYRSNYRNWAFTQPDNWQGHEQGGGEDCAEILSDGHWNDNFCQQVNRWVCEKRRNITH
Description: Test for inhibition of liver accumulation by simultaneous administration of ASOR. As to conditions: mice, 50 μg/kg with 1,322 μg/kg ASOR, after 2 minutes.

The nature of data set [6]: Toxicity: organ weights and blood biochemical test after repeated intravenous administration. Particulars: for organ weight % of the liver vs physiological saline group / organ weight (% (w/w)) of the lung vs physiological saline group: 40 μg/day; for organ weight % of the liver vs physiological saline group / organ weight (% (w/w)) of the lung vs physiological saline group / organ weight of the kidney: i.v. twice a day for 5 days; for organ weight of the kidney: 1.5-40 μg/day; for AlB-S (albumin) / BUN-S (blood urea nitrogen) / GOT (glutamic oxaloacetic transaminase) / GPT (glutamic pyruvic transaminase) / TBIL-S (total bilirubin) / TP-S (total protein): serum, with increase in dose 1.5-40 μg/day.

The subject of data set [7] is FL cells. Description: Human IFN bioassay, inhibition of cell denaturation effect by viruses. It counts as cell-based. As to the method: Human IFN bioassay was conducted by the method of Watabe et al. (Lymphokines and Interferones; A Practical Approach, IRL Press, Oxford, 1987) based on inhibition of a cell denaturation effect by viruses using FL cells. That is, when a virus was used in an amount by which to induce 100% cell denaturation, cells was treated in advance with an IFN sample dilute solution. The IFN potency of the sample dilute solution given when the viral cell denaturation was inhibited by 50% was rated as 1 unit (IU). The IFN biological activities of (Gal)3-INF-α and INF-α were calculated on the basis of the potency of the human INF-α standard product (supplied by The Green Cross Corporation).

“(Gal)3-rhIL-2: rhIL-2 with one molecule of branched Gal ligand (Gal)3 bound at Gln-74 via microbial transglutaminase”: the “specific activity to rhIL-2 (IL-2 biological activity)” value in data set [1] is 102%. Further, in data set [2], the degradation component entry is recorded as “scarcely observed” and the “uptake component in hepatocytes” value was “scarcely observed”. For the same substance, the “tumor size at anatomical examination compared to rhIL-2 group” value in data set [3] is “remarkably minimized”. Moreover, the “toxicity (overall conclusion)” value in data set [4] is recorded as “lower than that of rhIL-2 in the lung”. Besides, the “amount accumulated in the liver through simultaneous administration of ASOR” value in data set [5] is reported as “decreased at the same level as that of rhIL-2”. In data set [6], the “organ weight % of the liver vs physiological saline group” value is “significant increase”, the “organ weight (% (w/w)) of the lung vs physiological saline group” value is given as “no significant increase”, the “organ weight of the kidney” value is listed as “no increase in the organ weight was observed” and the “AlB-S (albumin)” value is “no increase in the measured value with the increase in the dose was observed”. For the same substance, in data set [6], the “BUN-S (blood urea nitrogen)” value is reported as “no increase in the measured value with the increase in the dose was observed”, the “GOT (glutamic oxaloacetic transaminase)” value was “increase in the measured value was observed”, the “GPT (glutamic pyruvic transaminase)” value was “increase in the measured value was observed” and the “TBIL-S (total bilirubin)” value is “increase in the measured value was observed”. For the same substance, the “TP-S (total protein)” value in data set [6] was “no increase in the measured value with the increase in the dose was observed”.

As for “(Gal)3-INF-α: human INF-α(2b) modified with one molecule of branched galactose ligand (Gal)3”, the “specific activity to unmodified INF-α” value in data set [7] is 82%. Moreover, the IFN biological activity in data set [7] (calculated on potency of human INF-α standard product) is 1.17×10^8 IU/mg.

Regarding “(GalNAc)3-rhIL-2: rhIL-2 modified with one molecule of branched N-acetylgalactosamine ligand (GalNAc)3 via microbial transglutaminase”, the “specific activity to rhIL-2 (IL-2 biological activity)” value in data set [1] worked out at 110%. In data set [2], the “uptake component in hepatocytes” value is given as “taken up in a relatively short period of time”.

For “rhIL-2: recombinant human interleukin-2, unmodified [reference compound]”, in data set [6], the “organ weight % of the liver vs physiological saline group” value was “significant increase”, the “organ weight (% (w/w)) of the lung vs physiological saline group” value was “significant increase”, the “organ weight of the kidney” value is listed as “no increase in the organ weight was observed” and the “AlB-S (albumin)” value was “no increase in the measured value with the increase in the dose was observed”. Moreover, in data set [6], the “BUN-S (blood urea nitrogen)” value was “no increase in the measured value with the increase in the dose was observed”, the “GOT (glutamic oxaloacetic transaminase)” value is reported as “increase in the measured value was observed”, the “GPT (glutamic pyruvic transaminase)” value is on record as “increase in the measured value was observed” and the “TBIL-S (total bilirubin)” value is listed as “increase in the measured value was observed”. In addition, the “TP-S (total protein)” value in data set [6] is on record as “no increase in the measured value with the increase in the dose was observed”.

Values taken from US6620916B1, “Modified physiologically active proteins and medicinal compositions containing the same” (Ajinomoto Co., Inc., priority 1996, dated 2003).
